From PubChem
Shown are actives, neighbours in structure and some others; about 3.7% of the full set was active somewhere.
Nrf2 activator: activators of Nrf2 (ARE) signaling; AREc32 ARE-luciferase reporter (MCF7-derived line), luminescence, 24 h; Potency, µM (titrated, usually from 46.1 µM), for the others: top-dose activation, most hits filed as activators; 0.31% of 410,000 active; AID 624171; also: potency is read from the fitted curve at half-maximal effect; % of control where 0% means no effect; nearly all actives have a fitted effect of over 65% in size
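AREc32 cells carrying an ARE-driven firefly luciferase, 1000 cells/well in OPTI-MEM with 5% FBS, dosed after overnight attachment and incubated 24 hr at 37 deg C. Steady-Glo luminescence read after 30 min at RT.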
ClpP mod: qHTS Assay for Activators of ClpP | purified B. subtilis ClpP, FRET peptide cleavage, 20 min | Potency, µM (highest dose often 57.5 µM), for the others: at the top dose activity change, negative = active | 1.9% of 340,000 active | AID 651965, 2013; active = well fitted falling curve with a large enough effect; inconclusive = small, poorly fitted or top-dose-only effect; inactive = no such curve, though single readings can be large or run the other way; also: potency is read from the fitted curve at half-maximal effect; the source files actives as falling curves though it sought activators and does not explain the sign; nearly all actives have a fitted effect of over 65% in size
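ClpP 10 microg/mL final, pH 8 Tris/KCl buffer with BSA, glycerol, Tween-20; compound pinned in; FRET-FV substrate; RT 20 min; Ex320/Em430; ΔFRET vs ADEP 5.8 microM, DMSO, no enzyme.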
A549 tox: counter-screen for Nrf2 inhibitors: cytotoxicity in A549 cells. AID 504648. 0.16% of 390,000 active. A549 ARE-Fluc cells, CellTiter-Fluor viability, 18-24 h. Potency, µM (series often up to 46 µM), inactives show at the top dose activity change, negative = cytotoxicity, usual class: inhibitors; also: potency is read from the fitted curve at half-maximal effect; % is scaled to controls: 0 for no effect and ±100 for the full control effect
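A549 ARE_Fluc cells in 5% FBS OPTI-MEM were exposed to compounds in concentration-response for 18-24 h at 37 deg C. Viability was read by CellTiter-Fluor fluorescence (Ex 405/Em 525) after 30 min, before the luciferase read.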
IL-2 act: activates IL-2 in a cell-based reporter assay | IL-2 activation reporter assay, cell-based qHTS; stimulated with anti-CD3/CD4/CD28 beads; in transgenic mouse T cells | activation, % (series mostly up to about 46 µM) | 0.065% of 360,000 active | AID 652025; in the data active = activation above about 50%; inconclusive = mostly about 30% to 49%; also: 0% is about no effect
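Unstimulated transgenic mouse T cells preincubated 60 min with compound, then stimulated with anti-CD3/anti-CD4-coated beads plus anti-CD28 for 18 h at 37 degrees C. IL-2 response read as EGFP and DsRed fluorescence by plate cytometry.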
miR-21 FLuc: raises the signal of a miR-21 reporter; HeLa miR-21 FLuc reporter, luciferase, 48 h; Potency, µM (highest dose often 38.3 µM), for inactives: at the highest dose reporter change, positive = more light; 340,000 tested, under 10 active; active = well fitted rising curve with a large enough effect; inconclusive = small, poorly fitted or top-dose-only effect; inactive = no such curve, though single readings can be large or run the other way;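 also: % of control where 0% means no effect; miR-21 action dims this reporter so a rising signal means less miR-21 action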
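Luminescence from a firefly luciferase reporter carrying a miR-21 binding site downstream, stably expressed under a CMV promoter in HeLa cells that make miR-21 endogenously, reports miRNA modulation after 48 h compound exposure up to approximately 40uM final.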
Nrf2 block: blocks Nrf2 signaling; AID 504444; A549 ARE-Fluc reporter, luciferase luminescence, 18-24 h; 2.1% of 360,000 active; Potency, µM (titrated, usually from 46 µM), for the others: top-dose activity change, negative = inhibition, actives largely listed as inhibitors; also: potency is read from the fitted curve at half-maximal effect; % is scaled to controls: 0 for no effect and ±100 for the full control effect; nearly all actives have a fitted effect of over 60% in size
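A549 ARE_Fluc cells, 5000/well, 5% FBS OPTI-MEM; compounds in dose-response, 18-24 h at 37 °C/5% CO2; CellTiter-Fluor viability read (Ex 405/Em 525), then BugLite luciferase luminescence = Nrf2 activity.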
* hit, by the source's call; ? = inconclusive; . = no result. Unless noted, calls follow the shape of the dose curve; as a rule, active = well fitted curve in the direction sought with a large enough effect; inconclusive = small, poorly fitted or top-dose-only effect, or another doubt; inactive = no such curve, though single readings can be large; an effect the other way counts as inactive or inconclusive.

No.	Molecule	Nrf2 block	Nrf2 activator	ClpP mod
1	CC(=O)OC(C)(C)/C=C/C(=O)[C@](C)(O)C1[C@H](O)C[C@@]2(C)C3CC=C4C(C[C@H](O)C(=O)C4(C)C)[C@]3(C)C(=O)C[C@]12C (stereo not given in full)	?	-3%	0%
2	COc1cc2[nH]c(=O)n(Cc3ccc(C(=O)N4CCN(c5ccc(Cl)cc5)CC4)cc3)c(=O)c2cc1OC	?	1%	-7%
3	Cn1c(-c2ccccc2)c(P(=S)(c2ccccc2)c2ccccc2)c2ccccc21	13%	.	.
4	CCOc1ccc(Nc2c(S(=O)(=O)c3ccc(C)cc3)cnc3ccccc23)cc1	23µM*	1%	-2%
5	COc1ccc(C(=O)Nc2ccc3c(c2)N(C)C(=O)c2ccccc2S3)cc1OC	.	0%	-13%
6	CC(N)C(=O)NC1C2C(=C(O)CC(O)C2O)C(=O)OC1(C)C(Cl)Cl (stereo not given)	1.6µM*	-2%	3%
7	Cc1sc2ncnc(N3CCN(S(=O)(=O)c4ccc(Br)cc4)CC3)c2c1C	12µM*	0%	-3%
8	CCn1nc(-c2ccccc2)nc2c(=O)n(C)c(=O)nc1-2	2.9µM*	-2%	0%
9	Cn1nc(-c2ccccc2)nc2c(=O)n(C)c(=O)nc1-2	2.6µM*	.	0%
10	COc1cccc(-n2cnc3sc(-c4ccccc4)cc3c2=O)c1	?	0%	-1%
11	Cc1nc2c(=O)n(C)c(=O)nc-2n(C)n1	2.3µM*	-3%	1%
12	ClCCN(CCCl)c1ccc(C=Nc2ccc(/C=C/c3ccncc3)cc2)cc1	.	.	-16%
13	Cc1ccc(NC(=O)C2CCCN(C(=O)c3cnn(-c4ccccc4)c3-n3cccc3)C2)cc1 (stereo not given)	13µM*	1%	-2%
14	CSc1cccc(NC(=O)C2CCN(C(=O)c3cnn(-c4ccccc4)c3-n3cccc3)CC2)c1	23µM*	7%	-4%
15	Nc1ccccc1C(=O)OC1CSC1	2%	0%	28µM*

No.	A549 tox	miR-21 FLuc	IL-2 act
1	0.65µM*	.	-1
2	-7%	?	.
3	-1%	.	.
4	-14%	21%	.
5	-27%	?	.
6	2.1µM*	.	-7
7	-7%	.	-4
8	4.1µM*	?	-1
9	3.7µM*	.	.
10	2%	.	-1
11	1.6µM*	?	-7
12	.	.	.
13	-6%	12%	.
14	-22%	?	.
15	-6%	-7%	-1

Brought forward from above: 3 compounds; new compounds follow.
No.	Molecule	Nrf2 block	Nrf2 activator	ClpP mod
13	Cc1ccc(NC(=O)C2CCCN(C(=O)c3cnn(-c4ccccc4)c3-n3cccc3)C2)cc1 (stereo not given)	13µM*	1%	-2%
14	CSc1cccc(NC(=O)C2CCN(C(=O)c3cnn(-c4ccccc4)c3-n3cccc3)CC2)c1	23µM*	7%	-4%
15	Nc1ccccc1C(=O)OC1CSC1	2%	0%	28µM*
16	CCOC(=O)c1ccccc1N	1%	0%	4%
17	COC(=O)C1C(=O)C=C(Nc2ccc(F)cc2F)CC1c1ccccc1 (stereo not given)	?	3%	18%
18	CN1CC[C@@]2(C)c3cc(O)ccc3N(C)[C@@H]12	-4%	-2%	?
19	Cc1nn(C(C)(C)C)c(C)c1/C=N/OC(=O)Nc1ccc(Cl)c(Cl)c1	1.8µM*	-2%	1%
20	C[C@H]1CNC(=O)c2c(C(=O)Nc3cccc(Cl)c3)ncn21	.	14%	?
21	Cc1ccccc1-n1c(/C=C/c2c(C)[nH]c3ccccc23)nc2ccccc2c1=O	21µM*	-2%	-1%
22	CCOC(=O)C1(CCc2ccccc2)CCN(Cc2csc(C(C)=O)c2)CC1	15µM*	16%	.
23	O=C1C(=O)c2ccccc2-c2ccccc21	18µM*	-3%	2%
24	COC1/C=C/C=C(\C)Cc2cc(O)c(Cl)c(c2)N(C)C(=O)CC(OC(=O)C(C)C)C2(C)OC2C(C)C2CC1(O)NC(=O)O2 (stereo not given)	8.2µM*	-1%	1%
25	O=C(Nc1ccccc1F)Oc1cccc(OC(=O)Nc2ccccc2F)c1	?	0%	1%

No.	A549 tox	miR-21 FLuc	IL-2 act
13	-6%	12%	.
14	-22%	?	.
15	-6%	-7%	-1
16	-2%	.	2
17	4%	-51%	-1
18	23µM*	.	-1
19	7%	27%	-1
20	.	.	-2
21	?	?	.
22	?	0%	0
23	?	?	-1
24	?	.	0
25	0%	-43%	-3
